# Ab-91 heavy chain CDR variants: yeast mating affinities

Target: peptide PDVDLGDISGINAS, taken from heptad repeat 2 (HR2) of SARS-CoV-2 spike.

Each scFv is VL, a 15-residue (Gly4Ser)3 linker, VH, as in the parent Ab-91, and differs from it in the CDRs of the heavy chain only.
VL: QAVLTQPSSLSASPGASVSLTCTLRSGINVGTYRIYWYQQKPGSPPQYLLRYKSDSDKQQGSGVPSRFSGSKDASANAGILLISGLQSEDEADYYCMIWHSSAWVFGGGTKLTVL
VH: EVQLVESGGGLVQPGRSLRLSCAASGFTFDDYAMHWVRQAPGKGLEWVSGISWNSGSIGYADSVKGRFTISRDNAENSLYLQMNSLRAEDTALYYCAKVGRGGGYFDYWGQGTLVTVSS

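The parent was found by panning a naive human phage display library on the peptide. Variants in AAYL51 differ from the parent at up to three CDR positions; double and triple changes were sampled at random. AlphaSeq pools MATa yeast showing the antibodies with MATalpha yeast showing the peptide. Binding brings cells together so that they mate, and sequencing counts the barcode pairs among the diploids. Each replicate has its own calibration line, from reference interactions of the BCL2 family. The assay was run in three technical replicates.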

Positions count from residue 1 of the parent VH; D31I puts I in place of D. Every variant below is changed at D31 of the VH (sequential numbering). Each Kd is an estimate from the mating assay, the geometric mean of the replicates in which the pair was seen; lower is stronger. "no signal" means that the variant was in the library but no mating with the target was seen in any replicate; the authors take this as a sign of poor binding, and no number exists. Nonspecific signal, from three strains lacking the peptide, appeared in 21% of pairings of library AAYL51, centred on 34 µM (5% of these signals below 1.8 µM); values are not corrected for it.

| changes | Kd | seen in |
|---|---|---|
| D31I I58R K65L | 160 nM | 3/3 |
| D31R D62Y | no signal | 0/3 |
| D31M D62N G102S | 120 nM | 3/3 |
| D31A D62Y D107V | 1.8 µM | 3/3 |
| D31V G56M A61I | 950 nM | 3/3 |
| D31V I51Y V99D | no signal | 0/3 |
| D31K G56I Y60S | 3.6 µM | 3/3 |
| D31W Y32H G56K | 570 µM | 1/3 |
| D31A G100L D107I | 1.8 nM | 3/3 |
| G26F D31C G103R | 650 µM | 2/3 |
| D31N H35N G102F | no signal | 0/3 |
| D31R D62L F106N | 830 nM | 2/3 |
| D31Q Y60P G102R | 280 µM | 3/3 |
| G26T F27P D31E | 5.8 µM | 3/3 |
| D30T D31F Y105K | 35 µM | 1/3 |
| D30A D31T S57A | 9.2 µM | 1/3 |
| D31N S55A D62K | no signal | 0/3 |
| F27W D31K F106V | no signal | 0/3 |
| F27D D31L V99M | 15 µM | 2/3 |
| D31G G50M I58C | no signal | 0/3 |
| D31W S52R A61L | 29 µM | 1/3 |
| D31P M34S W53H | no signal | 0/3 |
| D30G D31F D62S | 76 nM | 3/3 |
| D31E N54G R101K | 400 nM | 3/3 |
| F29K D31N I58D | 170 µM | 3/3 |
| F27G D31K K65W | no signal | 0/3 |
| D31M G50C G104Q | 150 µM | 1/3 |
| D31P I51T Y108A | 25 µM | 2/3 |
| D31I S55L F106D | no signal | 0/3 |
| D31Q G59H D107K | 78 nM | 3/3 |
| D31A A33R I51E | 62 µM | 1/3 |
| D31C M34R S57T | 180 µM | 1/3 |
| D31K A33C G100D | no signal | 0/3 |
| D31Y Y32E G50A | no signal | 0/3 |
| F27L D31Q I58E | 74 µM | 3/3 |
| D31H I51D G100P | 43 µM | 2/3 |
| D31W N54D S63Q | 200 nM | 3/3 |
| D31P G59Y D62N | no signal | 0/3 |
| D31P S57C Y108K | no signal | 0/3 |
| T28A D31K | 63 nM | 3/3 |
| D31L G100K D107Y | 93 µM | 1/3 |
| F29W D31H G59D | no signal | 0/3 |
| T28P D31G W53M | no signal | 0/3 |
| D31S S57Y Y60L | 300 µM | 1/3 |
| D31T H35V G103Q | 63 µM | 3/3 |
| D31W S57K A61L | no signal | 0/3 |
| D31N K65P V99P | 580 µM | 3/3 |
| D31S S57E | 800 nM | 2/3 |
| D31H S52M S55A | 120 µM | 2/3 |
| D31R A33G G59I | 14 nM | 3/3 |
| D31G G59C G102E | 310 µM | 3/3 |
| D30L D31H S63D | 40 nM | 3/3 |
| D31K I58L F106A | 3.8 µM | 1/3 |
| D31E S57I G100Y | no signal | 0/3 |
| D31L S57R Y60H | no signal | 0/3 |
| D31N Y32F R101L | 110 nM | 3/3 |
| D31T S52P A61Y | 100 µM | 2/3 |
| D30L D31Q M34R | 460 µM | 1/3 |
| F27S D31S Y60F | no signal | 0/3 |
| G26T D31H G59Q | 350 µM | 1/3 |
| D31G Y60K V99H | 3.8 µM | 1/3 |
| D31Q S52M | 73 nM | 3/3 |
| D31L Y32R K65A | 8.5 µM | 1/3 |
| F27D D31V G50P | 110 µM | 2/3 |
| D31G N54L G100N | no signal | 0/3 |
| D31H | 11 nM | 3/3 |
| D31Y F106G D107L | 160 µM | 3/3 |

Top 10 of the variants detected in all replicates, tightest first:

{"changes": "D31A G100L D107I", "Kd": "1.8 nM", "seen in": "3/3"}
{"changes": "D31H", "Kd": "11 nM", "seen in": "3/3"}
{"changes": "D31R A33G G59I", "Kd": "14 nM", "seen in": "3/3"}
{"changes": "D30L D31H S63D", "Kd": "40 nM", "seen in": "3/3"}
{"changes": "T28A D31K", "Kd": "63 nM", "seen in": "3/3"}
{"changes": "D31Q S52M", "Kd": "73 nM", "seen in": "3/3"}
{"changes": "D30G D31F D62S", "Kd": "76 nM", "seen in": "3/3"}
{"changes": "D31Q G59H D107K", "Kd": "78 nM", "seen in": "3/3"}
{"changes": "D31N Y32F R101L", "Kd": "110 nM", "seen in": "3/3"}
{"changes": "D31M D62N G102S", "Kd": "120 nM", "seen in": "3/3"}

From the AlphaSeq antibody data of Engelhart et al. 2022 (doi:10.1038/s41597-022-01779-4), copy in the FLAb collection.